Test results: paper PMC4500896, “Frog intestinal perfusion to evaluate drug permeability: application to p-gp and cyp3a4 substrates” (Frontiers in Pharmacology, 2015)

Test system: frog intestine
Assay: Frog in situ single pass intestinal perfusion (SPIP), parallel-tube model
Conditions: inhibitor concentration not given

CC(=O)N1CCN(c2ccc(OCC3COC(Cn4ccnc4)(c4ccc(Cl)cc4Cl)O3)cc2)CC1 (centres unmarked) [Ketoconazole, ketoconazole]
Change in effective permeability coefficient of losartan in presence of inhibitor (probe losartan): significant change in effective permeability coefficient was not observed
Change in effective permeability coefficient of midazolam in presence of inhibitor (probe midazolam): Moderate change
